The target of the experiment is tumor necrosis factor-alpha (TNFα) (UniProt P01375). The experiment in a line: ELISA, target binding.

The text below walks through data of patent publication US20250333518A1 (ROCK BIOMEDICAL, published 2025).

What is called EC50 is the concentration needed to bring the measured effect to its halfway point. Read a low EC50 as higher potency in that assay. With “Adalimumab, commercially available product (Humira®) (antibody; other documents disagree on this pair)”, the EC50 came to 0.213 nM.

On to “Adalimumab (Humira®) population produced by the SAII A3 cells according to the present disclosure (antibody; other documents disagree on this pair)”, for which the EC50 was 0.373 nM.
